{"source": "patent US10196357B2", "about": "“Biaryl compositions and methods for modulating a kinase cascade” (Athenex, Inc., priority 2007, dated 2019)", "type_in_all_cases": "cell-based", "key": {"SK-N-MC": {"system": "SK-N-MC", "assay": "brain tumor cell growth inhibition, SK-N-MC", "settings": "Homo sapiens, neuroepithelioma, read-out: IC50 (title: GI50)", "experimental": "(§1) These GI50s were determined using standard tumor growth inhibition assays, similar to those described in detail in this Example 7."}, "SW1088": {"system": "SW1088", "assay": "brain tumor cell growth inhibition, SW1088", "settings": "Homo sapiens; SW1088, astrocytoma; read-out: IC50 (title: GI50)", "experimental": "as §1"}, "U87": {"system": "U87", "assay": "brain tumor cell growth inhibition, U87", "settings": "Homo sapiens, U-87 MG; U87, glioblastoma; astrocytoma; read-out: IC50 (title: GI50)", "experimental": "as §1"}, "Daoy": {"system": "Daoy", "assay": "brain tumor cell growth inhibition, Daoy", "settings": "Homo sapiens, desmoplastic cerebellar medulloblastoma, read-out: IC50 (title: GI50)", "experimental": "as §1"}}, "data": [{"smiles": "Cc1nc(Nc2ncc(C(=O)Nc3c(C)cccc3Cl)s2)cc(N2CCN(CCO)CC2)n1", "note": "[Dasatinib, reference compound]", "values": [{"measurement": "IC50", "setting": "SK-N-MC", "value": 5110, "unit": "nM"}, {"measurement": "IC50", "setting": "SW1088", "value": 897, "unit": "nM"}, {"measurement": "IC50", "setting": "U87", "value": 1590, "unit": "nM"}, {"measurement": "IC50", "setting": "Daoy", "value": 2930, "unit": "nM"}]}]}
